Laboratory results: patent US6716960B2, “Mch3, a novel apoptotic protease, nucleic acids encoding and methods of use” (Idun Pharmaceuticals, Inc., priority 1995, dated 2004)
pKi: −log10 of the molar value.

Target: T1, CPP32 (Homo sapiens, UniProt P42574)
T1 construct: CPP32 is cleaved at Asp28 and Asp175 to generate two polypeptides of molecular masses of 17 kDa (p17) and 12 kDa (p12); GST (N, cleaved yes); made in house; host or cells: E. coli; bacterial lysates
T1 sequence (P42574 29-175 limits assumed): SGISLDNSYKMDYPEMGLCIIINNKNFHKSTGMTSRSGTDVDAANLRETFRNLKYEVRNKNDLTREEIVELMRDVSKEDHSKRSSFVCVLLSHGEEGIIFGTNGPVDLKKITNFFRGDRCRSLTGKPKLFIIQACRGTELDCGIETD
T1 sequence (P42574 176-277 limits assumed): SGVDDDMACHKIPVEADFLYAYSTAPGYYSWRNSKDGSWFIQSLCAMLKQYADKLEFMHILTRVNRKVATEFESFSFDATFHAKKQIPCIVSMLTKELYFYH
Assay: Continuous fluorometric assay of recombinant CPP32 with DEVD-AMC substrate
Assay type: biochemical

`CC(=O)N[C@@H](CC(=O)O)C(=O)N[C@@H](CCC(=O)O)C(=O)N[C@H](C(=O)N[C@H](C=O)CC(=O)O)C(C)C` [DEVDaldehyde, DEVD-CHO] was tested, and the pKi was 9.23.
